From US10233209B2, “Inhibitors of the farnesoid x receptor and uses in medicine” (The United States of America, as represented by the …, priority 2013, dated 2019)

Molecular target: T1, FXR (Homo sapiens, UniProt Q96RI1)
T1 sequence (Q96RI1 1-486): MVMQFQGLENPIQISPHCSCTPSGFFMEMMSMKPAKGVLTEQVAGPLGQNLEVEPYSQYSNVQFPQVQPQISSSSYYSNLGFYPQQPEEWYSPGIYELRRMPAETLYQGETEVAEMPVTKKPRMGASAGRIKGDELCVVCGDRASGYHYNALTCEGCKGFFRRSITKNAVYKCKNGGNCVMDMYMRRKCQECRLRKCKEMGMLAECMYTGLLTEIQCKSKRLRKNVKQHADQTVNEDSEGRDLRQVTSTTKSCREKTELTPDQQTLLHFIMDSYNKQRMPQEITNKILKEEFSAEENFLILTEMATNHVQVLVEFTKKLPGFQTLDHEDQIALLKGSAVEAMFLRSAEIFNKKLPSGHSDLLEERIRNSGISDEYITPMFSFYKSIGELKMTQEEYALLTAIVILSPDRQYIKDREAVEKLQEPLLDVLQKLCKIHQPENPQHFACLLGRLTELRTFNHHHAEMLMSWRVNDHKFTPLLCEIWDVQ
Assay: FXR target gene mRNA expression in differentiated Caco-2 cells
Format: cell-based
Parameters: host or cells: differentiated Caco-2
Conditions: for expression of FXR target gene Fgf19 mRNA / expression of FXR target gene Shp mRNA: GW4064 2 μM and 5 μM; for Atp5g mRNA expression: GW4064 treatment

CC(C)c1onc(-c2c(Cl)cccc2Cl)c1COc1ccc(/C=C/c2cccc(C(=O)O)c2)c(Cl)c1 [GW4064]
expression of FXR target gene Fgf19 mRNA: induced | expression of FXR target gene Shp mRNA: induced | expression of FXR target gene Fgf19 mRNA (listed as Gw4064): induced expression | expression of FXR target gene Shp mRNA (listed as Gw4064): induced expression | Atp5g mRNA expression: inhibited expression | Atp5g mRNA expression (listed as Gw4064): inhibited Atp5g mRNA expression
